In experiment [1] the target is T1, rat PACAP receptor protein Type I-A (pRPR3-A) (Rattus norvegicus, UniProt P32215).
T1 construct: pRPACAPR46 and pRPACAPR5 were recombined at the BamHI site to prepare pRPACAPR46-5 having a complete translation frame; expressed in transfected cells; host or cells: CHO cells, pRPR3-A (pRc/CMV); clone A12 for cAMP
T1 sequence (P32215 20-467 isoform P32215-5 limits assumed): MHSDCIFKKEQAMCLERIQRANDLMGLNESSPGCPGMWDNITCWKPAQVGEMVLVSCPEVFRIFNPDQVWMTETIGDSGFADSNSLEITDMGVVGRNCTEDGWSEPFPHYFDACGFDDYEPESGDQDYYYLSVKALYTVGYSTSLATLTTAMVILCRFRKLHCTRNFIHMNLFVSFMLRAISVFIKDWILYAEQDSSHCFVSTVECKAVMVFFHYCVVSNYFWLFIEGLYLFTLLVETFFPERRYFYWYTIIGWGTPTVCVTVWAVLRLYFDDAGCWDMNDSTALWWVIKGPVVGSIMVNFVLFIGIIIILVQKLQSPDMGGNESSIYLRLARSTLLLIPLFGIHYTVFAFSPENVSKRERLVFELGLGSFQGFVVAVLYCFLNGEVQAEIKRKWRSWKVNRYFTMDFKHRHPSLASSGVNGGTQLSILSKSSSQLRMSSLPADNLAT
Briefly: Intracellular cyclic AMP of rat PACAP receptor cDNA-introduced CHO cells, strain A12. It is filed as cell-based. Conditions: CHO strain A12, 37° C., 40 minutes, 0.5 mM IBMX, FIG. 43. As to the method: (§1) From the binding experiment with [^125I]-PACAP27 of (3) described above, using CHO strains A12 and B17 highly producing rat PACAP receptor protein, the production promotion of intracellular cyclic AMP with PACAPs was detected in the following manner. Each 48-well plate for tissue culture was inoculated with each of the cell strains. at a density of 1.0×10^5 cells/well, followed by cultivation for 3 days. The plate was washed twice with Ham's F12 medium supplemented with 0.1% BSA and 0.5 mM IBMX, and 500 μl/well of the same medium was added thereto. PACAP27, PACAP38 or VIP having each concentration was added thereto in a 1/100 amount, followed by standing at 37° C. for 40 minutes. The supernatant was removed, and extraction was conducted with 100% cold ethanol. The extract was evaporated to dryness with a centrifugal freeze dryer, and redissolved in the buffer attached to an EIA kit for assaying cyclic AMP (Amersham). Then, the amount of cyclic AMP was assayed according to the formulation of the kit.

In experiment [2] the target is T1, rat PACAP receptor protein Type I-A (pRPR3-A). The experiment can be described thus: Competitive binding with [125I]-PACAP27, membrane fraction of pRPR3-A-introduced CHO cells. Particulars: 100 pM [125I]-PACAP27, 25° C., 1 hour, FIG. 40 (A). The protocol: (§2) The pRPR3-A-introduced and pRPR4-B-introduced CHO cells obtained in (2) described above were each disrupted in sodium carbonate buffer containing 1 mM EDTA, 0.5 mM PMSF, 20 μg/ml leupeptin, 4 μg/ml E-64 and 1 μg/ml pepstatin with a Polytron homogenizer (Kinematica) to prepare membrane fractions. Using the membrane fractions, complex binding experiments were conducted. For each of the membrane fractions of the pRPR3-A-introduced CHO cells and the pRPR4-B-introduced CHO cells, each of 10 μg and 15 μg (converted to a protein amount) thereof was ligated with. 100 pM of [^125I]-PACAP27 in a buffer containing 20 mM Tris (pH 7.4), 1 mM EDTA, 0.05% CHAPS, 0.1% BSA and various protease inhibitors. For the competitive experiments, PACAP27 and VIP having each concentration were added. The reaction was conducted at 25° C. for 1 hour, and bound ligands were separated from free ligands by filtration through a filter. As to non-specific binding, a value in the case that 1 μM unlabeled PACAP27 was added and used as a standard. The amount of bound ligands was measured with a γ-counter.

For experiment [3], the target named is T2, rat PACAP receptor protein Type I-B (pRPR4-B) (Rattus norvegicus, UniProt P32215).
T2 construct: two kinds of complete primary structures of rat PACAP receptor protein were deduced; expressed in transfected cells; host or cells: CHO cells, pRPR4-B (pRc/CMV); clone B17 for cAMP
T2 sequence (P32215 20-495 isoform P32215-2 limits assumed): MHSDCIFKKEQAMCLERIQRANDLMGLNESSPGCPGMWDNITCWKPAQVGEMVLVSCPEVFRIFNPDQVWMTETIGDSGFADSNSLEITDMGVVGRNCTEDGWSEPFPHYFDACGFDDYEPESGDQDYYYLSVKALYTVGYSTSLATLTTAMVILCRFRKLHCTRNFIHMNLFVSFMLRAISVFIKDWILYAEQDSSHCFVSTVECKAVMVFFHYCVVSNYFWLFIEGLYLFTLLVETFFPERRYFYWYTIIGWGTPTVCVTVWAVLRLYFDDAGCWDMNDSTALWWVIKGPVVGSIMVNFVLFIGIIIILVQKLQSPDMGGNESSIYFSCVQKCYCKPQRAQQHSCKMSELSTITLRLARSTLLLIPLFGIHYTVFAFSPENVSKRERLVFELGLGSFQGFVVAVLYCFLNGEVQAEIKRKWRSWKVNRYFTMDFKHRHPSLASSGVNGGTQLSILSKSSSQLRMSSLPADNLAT
Briefly: Intracellular cyclic AMP of rat PACAP receptor cDNA-introduced CHO cells, strain B17. The experiment is classed as cell-based. Particulars: CHO strain B17, 37° C., 40 minutes, 0.5 mM IBMX, FIG. 43. As to the method:
as §1

Experiment [4] concerns the target T2, rat PACAP receptor protein Type I-B (pRPR4-B). Briefly: Competitive binding with [125I]-PACAP27, membrane fraction of pRPR4-B-introduced CHO cells. Conditions: 100 pM [125I]-PACAP27, 25° C., 1 hour, FIG. 40 (B). As to the method:
as §2

As for PACAP27, the “production of intracellular cyclic AMP” value is reported as “promoted the production of intracellular cyclic AMP, depending on the concentrations” in experiment [1] and “promoted the production of intracellular cyclic AMP, depending on the concentrations” in experiment [3]. The “competition with [125I]-PACAP27” value in experiment [2] and in experiment [4] was “concentration-dependent competition took place” in each case.

The record behind these values is patent US6399316B1, “PACAP receptor protein, method for preparing said protein, and use thereof” (Takeda Chemical Industries, Ltd., priority 1994, dated 2002).
